Biological target: T1, hERG potassium channel (Homo sapiens, UniProt Q12809)
T1 construct: host or cells: HEK293
Assay: Manual patch-clamp test of the inhibitory activity on hERG potassium channel
Assay type: cell-based
Conditions: HEK293 cells stably expressing hERG, pH 7.35, HEK293 cell line stably expressing the hERG ion channel, five concentrations 0.37 to 30 µM, n = 2
Method: Prior to the experiment, the cells were cultured at a density of 5 × 10^5 cells per 3.5 cm culture dish, induced with 1 µg/mL doxycycline for 48 hours, followed by digestion, and seeded onto glass slides for subsequent manual patch-clamp experiments.
Osmolality of the solutions was controlled between 280 and 300 mOsmol/kg. The solutions were filtered and stored at 4°C prior to use.
The stock solution was serially diluted 1:3 in DMSO as the solvent to obtain three intermediate solutions with concentrations of 3.33, 1.11, and 0.37 mM. Prior to the experiment, the test compound intermediate solutions were further diluted 1:1000 with extracellular fluid to prepare a series of working solutions.
Using a 10× objective lens, the tip of the glass electrode was located and positioned at the center of the field of view. […] Once the recorded current stabilized, the last five hERG current values were recorded and averaged as the final current value at a specific concentration. […]
After perfusion with blank solvent or compound solutions, the average of five consecutive stable current values was calculated as "tail currentblank" and "tail currentcompound", respectively.
The percentage of current inhibition was calculated using the following formula. tail current inhibition rate = (1−(tail currentcompound −tail currentpositive ctrl)/(tail currentblank −tail currentpositive ctrl)) × 100 [formula] […]

Chains of the proteins cited; added tags and fusions are not shown. Lines headed by an entry give the natural chain unless they say otherwise; changes in a name come on top.
UniProt Q12809: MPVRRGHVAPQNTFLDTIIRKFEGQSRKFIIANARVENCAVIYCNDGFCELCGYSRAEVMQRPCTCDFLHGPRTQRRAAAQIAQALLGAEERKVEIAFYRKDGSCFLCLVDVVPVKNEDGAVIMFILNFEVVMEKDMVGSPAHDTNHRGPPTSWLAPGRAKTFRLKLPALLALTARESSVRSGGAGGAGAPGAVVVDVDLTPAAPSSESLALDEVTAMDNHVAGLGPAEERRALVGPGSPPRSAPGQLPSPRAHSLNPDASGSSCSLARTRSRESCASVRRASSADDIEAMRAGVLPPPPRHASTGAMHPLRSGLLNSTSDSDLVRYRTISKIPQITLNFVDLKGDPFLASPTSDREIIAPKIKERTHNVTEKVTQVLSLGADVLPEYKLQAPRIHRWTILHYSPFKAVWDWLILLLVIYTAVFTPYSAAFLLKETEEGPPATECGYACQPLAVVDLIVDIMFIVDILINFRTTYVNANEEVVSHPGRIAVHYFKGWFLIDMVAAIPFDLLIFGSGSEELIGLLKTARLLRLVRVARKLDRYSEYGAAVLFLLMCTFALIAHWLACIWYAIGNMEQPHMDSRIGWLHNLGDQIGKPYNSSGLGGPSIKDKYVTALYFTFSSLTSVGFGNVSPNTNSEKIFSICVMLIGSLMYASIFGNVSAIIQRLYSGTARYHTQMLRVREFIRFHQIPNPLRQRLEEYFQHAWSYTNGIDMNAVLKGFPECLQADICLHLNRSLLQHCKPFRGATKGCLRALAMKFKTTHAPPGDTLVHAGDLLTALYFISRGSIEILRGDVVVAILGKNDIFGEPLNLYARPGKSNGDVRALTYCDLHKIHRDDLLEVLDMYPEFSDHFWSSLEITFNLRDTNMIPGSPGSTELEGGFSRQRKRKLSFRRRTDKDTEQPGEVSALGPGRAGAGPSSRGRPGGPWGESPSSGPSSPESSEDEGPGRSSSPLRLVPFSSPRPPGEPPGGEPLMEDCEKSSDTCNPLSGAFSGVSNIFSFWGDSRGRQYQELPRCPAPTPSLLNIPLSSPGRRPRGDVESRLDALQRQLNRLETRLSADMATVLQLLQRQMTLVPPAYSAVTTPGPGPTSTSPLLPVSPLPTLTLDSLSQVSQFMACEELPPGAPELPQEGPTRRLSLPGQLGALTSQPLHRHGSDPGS

| SMILES | IC50 [µM] |
| --- | --- |
| COc1cc(S(C)(=O)=O)ccc1NCC#Cc1nc2c(N[C@@H]3CCN(C)C[C@@H]3F)cccn2c1CC(F)(F)F [Cpd-B] | 5.5 |
| CNC(=O)c1ccc(NCC#Cc2cc3c(N[C@@H]4CCN(C)C[C@@H]4F)cccn3c2CC(F)(F)F)c(OC)c1 [Cpd-C, 4-((3-(8-(((3S,4R)-3-Fluoro-1-methylpiperidin-4-yl)amino)-3-(2,2,2-trifluoroethyl)indolizin-2-yl)prop-2-yn-1-yl)amino)-3-methoxy-N-methylbenzamide] | 1.4 |
